# In patent US20100068147A1, “DENGUE DIAGNOSIS AND TREATMENT” (Agency for Science , Technology and Research, priority 2006, published 2010):
# B1: IFN-β: interferon beta (IMCB, Singapore), 500 U/ml pre-treatment of A549 cells (protein, UniProt P01574 22-187, looked up)
# Interferon beta: MSYNLLGFLQRSSNFQCQKLLWQLNGRLEYCLKDRMNFDIPEEIKQLQQFQKEDAALTIYEMLQNIFAIFRQDSSSTGWNETIVENLLANVYHQINHLKTVLEEKLEKEDFTRGKLMSSLHLKRYYGRILHYLKAKEYSHCAWTIVRVEILRNFYFINRLTGYLRN
# Test system: dengue virus TSV01
# Assay: Plaque assay, wild type and viperin over expressing A549 cells with IFN-β pre-treatment, infected with TSV01
# Type: cell-based, dengue virus serotype 2
# Conditions: 12 hrs pre-treatment with IFN-β 500 U/ml in combination with viperin overexpression; A549, MOI 1, 48 hrs; FIG. 7E
# Protocol: For plaque assay, BHK-21 cells are cultured ON in 24 well plates before media is removed and serial dilutions (10-fold) of cell culture supernatants added to individual wells. Plates are incubated for 1 hr before media is aspirated and replaced with 0.5 ml of 0.8% methyl-cellulose medium (with 2% FBS). Plates are then incubated for 5 days before the media is removed and cells fixed in 4% formaldehyde for 20 min then rinsed in water and stained with crystal violent for 20 min and rinsed again. Plaques are counted manually and concentrations of plaque forming units per ml (pfu/ml) of the sample cell culture supernatant calculated.
# Cells are cultured ON in 6 well plates before IFN-β (IMCB, Singapore), at a final concentration of 500 U/ml, is added to each well while control wells remained untreated. Twelve hours post IFN-β-treatment, cell culture medium is removed, replaced with fresh medium, and the cells infected with dengue virus (TSV01; MOI 1) for 48 hrs before cell culture supernatants are removed and the number of plaque forming units determined by plaque assay.
molecule,measurement,value
B1,anti-viral effect (plaque forming units),greatest anti-viral effect
